# Test system: NF-κB-mediated luciferase activity in HEK293 NF-κB/Luc cells
# Experiment: NF-κB-mediated luciferase reporter gene assay
# Format: cell-based, human
# Details: pretreatment of NF-κB/Luc 293 cells
# Experimental: The HEK293 NF-κB/luciferase reporter cell line is a derivative of the human embryonic kidney cell line (ATCC; CRL-1573) and carries a luciferase reporter gene under the regulation of 5×NF-κB binding sites. […] When performing the luciferase assay, the DMEM basal medium was replaced with phenol-red free DMEM basal medium and the G418 was omitted.
# For NF-κB-mediated luciferase assays, HEK293 NF-κB/luciferase cells were seeded at 1.5×10^4 cells/well in 90 μl phenol-red free DMEM complete medium into Corning 3917 white opaque-bottom tissue culture plates. For Formulae II-2, II-4, II-5A and II-18, a 400 μM starting dilution was made in 100% DMSO and this dilution was used to generate an 8-point half log dilution series. This dilution series was further diluted 40× in appropriate culture medium and ten μl aliquots were added to the test wells in triplicate resulting in final test concentrations ranging from 1 μM to 320 pM. […]
# At the end of the TNF-α stimulation, 100 μl of Steady Lite HTS luciferase reagent (Packard Bioscience) was added to each well and the plates were left undisturbed for 10 min at room temperature before measuring the luciferase activity. The relative luciferase units (RLU) were measured by using a Fusion microplate fluorometer (Packard Bioscience).
# NF-κB inducible luciferase activity was measured at 6 hours.
structure (smiles),measurement,value
CC[C@H]1C(=O)N[C@@]2([C@@H](O)[C@@H]3C=CCCC3)C(=O)O[C@@]12C [Formula II-17],luciferase activity upon TNF-α stimulation,dose-dependent decrease of luciferase activity

# From patent US7572606B1 (Nereus Pharmaceuticals, Inc., priority 2005, dated 2009)
